Measurements from patent US12403104B2, “Compounds and methods of promoting myelination” (Case Western Reserve University, priority 2016, dated 2025).

Test system: OPCs (OPC-1 derivation)
Experiment: High-throughput screening of 3,000 bioactive small molecules for MBP+ oligodendrocyte formation
Settings: 2 μM, 72 h

Compound	cell viability (% relative to DMSO)
Clc1ccc(C(Cn2ccnc2)OCc2c(Cl)cccc2Cl)c(Cl)c1 (centres unmarked) [Isoconazole nitrate]	106.98%
Cl.Clc1ccc(N2CCN(Cc3c[nH]c4ncccc34)CC2)cc1 [L-745,870 hydrochloride]	92.82%
